Apparent affinities of Ab-14 variants for a coronavirus HR2 peptide

Antigen: PDVDLGDISGINAS, a 14-residue peptide of the SARS-CoV-2 spike HR2 region.

Ab-14 is the parent antibody, in scFv form: VH, then a 15-residue (Gly4Ser)3 linker, then VL. The heavy chain is unchanged in all variants.
VH: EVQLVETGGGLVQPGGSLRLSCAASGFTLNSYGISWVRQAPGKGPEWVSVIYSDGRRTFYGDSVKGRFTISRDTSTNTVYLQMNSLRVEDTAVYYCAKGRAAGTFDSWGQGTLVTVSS
VL: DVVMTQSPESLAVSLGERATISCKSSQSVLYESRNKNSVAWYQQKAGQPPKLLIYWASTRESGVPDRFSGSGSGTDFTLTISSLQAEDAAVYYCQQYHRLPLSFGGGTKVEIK

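The parent was found by panning a naive human phage display library on the peptide. This is the validation round: designs drawn from the data on random variants, tested in the same kind of assay. Their group label is 14L_GP_Gen (GP: Gaussian process model; Gen: genetic algorithm; a sequence that several methods proposed may carry one label only). AlphaSeq pools MATa yeast showing the antibodies with MATalpha yeast showing the peptide. Pairs that bind mate more often; barcode pairs of the diploids are counted by sequencing. The ratio of observed to expected reads was calibrated, replicate by replicate, on BCL2-family standards whose Kd was known from biolayer interferometry. Each pool was mated in six replicate cultures.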

Positions count from residue 1 of the parent VL; S25L puts L in place of S. Numbers give log10(Kd / nM), so 0 is 1 nM and 3 is 1 µM. Smaller is tighter. An entry "ND" has no value in the source: the pair was not observed among the diploids in that replicate. This suggests poor binding but is not conclusive. Background: pairings of all light chain designs with three empty control strains gave a value in 4% of cases (median 2.64, 5th percentile 1.59). Values in that range, when seen in few replicates, are hard to tell from nonspecific mating. The control count says in how many pairings with the empty strains this scFv gave a signal, with their mean in brackets. The parent sequence was in this pool as ten entries: three were never detected, three once, and four in most replicates, with averages from 0.34 to 2.37. The authors' rule: three or more of the six replicates give a measured affinity, fewer mean a poor binder. Values of this round are not directly comparable with the first-round values of the same sequences.

changes,log10 Kd (nM) by replicate,control signals
S25L+V29T+S38A+W56N+T59Q,0.18 / 0.58 / 0.07 / 0.55 / 0.07 / 0.42,0 of 18
S25M+V29H+S38N+W56D,-0.27 / -0.37 / -0.47 / -0.60 / -0.44 / -0.33,1 of 18 (2.57)
S25L+V29H+S38N+W56N,0.63 / 0.40 / 0.45 / 0.33 / 0.70 / 0.38,0 of 18
S25L+S26P+V29W+W56Q,-0.21 / -0.37 / -0.40 / -0.39 / -0.47 / -0.14,1 of 18 (2.89)
S25L+V29D+W56E+Q96S,-0.05 / -0.59 / -0.73 / -1.04 / -0.78 / -0.60,0 of 18
S25V+V29G+S33D+W56N,-0.17 / -0.17 / -0.26 / -0.42 / -0.23 / -0.14,3 of 18 (2.99)
S25L+N35M+W56G+T59Q,0.07 / -0.14 / -0.26 / -0.48 / -0.46 / 0.05,0 of 18
S25L+V29N+W56N+E61M+S62Q,-0.04 / -0.16 / -0.08 / -0.37 / -0.25 / -0.11,1 of 18 (3.43)
S25L+V29H+N35M+W56N+E61L,0.37 / 0.35 / 0.35 / 0.12 / 0.39 / 0.45,1 of 18 (3.85)
S25L+V29W+W56N+T59Q+S62K,-0.02 / -0.15 / -0.14 / -0.15 / -0.11 / 0.06,1 of 18 (2.07)
S25L+V29C+S38N+W56D,-0.57 / -0.64 / -0.66 / -0.88 / -0.86 / -0.80,0 of 18
S25L+L30W+W56G,0.21 / -0.17 / 0.09 / -0.28 / -0.13 / 0.02,0 of 18
K24F+S25L+W56G,0.02 / 0.01 / -0.19 / -0.04 / -0.12 / 0.34,2 of 18 (3.53)
S25F+S38A+W56N,0.16 / -0.13 / -0.05 / -0.22 / 0.19 / 0.26,1 of 18 (2.79)
S25L+V29W+L30D+W56N+T59Q,0.13 / 0.21 / -0.07 / -0.07 / 0.13 / 0.24,0 of 18
S25L+N35V+W56N+T59Q,0.13 / 0.13 / -0.04 / -0.12 / 0.15 / 0.06,1 of 18 (2.36)
S25L+S26Y+N35Q+W56N+T59Q,0.10 / 0.46 / -0.11 / -0.12 / 0.13 / 0.29,1 of 18 (1.93)
S25L+V29K+K36S+S38N+W56D,-0.09 / -0.68 / -0.67 / -0.73 / -0.55 / -0.62,1 of 18 (1.08)
S25L+L30S+W56E,0.27 / -0.28 / 0.09 / -0.31 / 0.16 / 0.51,1 of 18 (1.81)
S25F+N35M+W56N,0.26 / -0.10 / 0.21 / 0.11 / -0.06 / 0.15,1 of 18 (2.42)
S25L+V29M+K36W+W56N,-0.24 / -0.24 / -0.34 / -0.30 / -0.34 / -0.21,1 of 18 (1.77)
S25L+W56N+S62Q+S103M,0.45 / -0.30 / -0.17 / -0.41 / -0.35 / -0.10,0 of 18
S25L+S26P+V29F+W56G,1.06 / 0.60 / 0.43 / 0.02 / 0.19 / 0.30,1 of 18 (2.72)
K24H+S25L+W56N+E61F,-0.14 / -0.11 / 0.02 / -0.17 / -0.20 / 0.04,0 of 18
S25L+V29M+K36P+W56N+T59Q,-0.67 / -0.75 / -0.91 / -0.88 / -0.88 / -0.59,0 of 18
S25L+Q27G+V29M+W56D+T59Q,-0.40 / -0.33 / -0.73 / -0.77 / -0.59 / -0.54,0 of 18
S25L+V29W+K36S+S38N+W56N,-0.27 / -0.25 / -0.39 / -0.34 / -0.25 / -0.15,1 of 18 (3.59)
K24H+S25L+V29E+W56N+T59K,0.23 / 0.25 / 0.01 / 0.23 / -0.03 / 0.27,2 of 18 (3.09)
S25L+V29M+W56E+Q96A,1.29 / 0.58 / 0.87 / 0.53 / 0.37 / 0.71,0 of 18
S25L+V29W+K36W+W56N+T59Q,0.09 / 0.12 / -0.08 / -0.11 / -0.07 / 0.06,0 of 18
S25L+V29H+N35M+W56N,-0.24 / -0.29 / -0.50 / -0.46 / -0.37 / -0.34,1 of 18 (3.04)
S25L+L30G+W56E+S62D,0.24 / -0.05 / -0.26 / -0.14 / -0.19 / -0.05,0 of 18
S25V+V29Q+W56N+T59Q,-0.07 / -0.23 / -0.10 / -0.37 / -0.03 / -0.01,1 of 18 (1.73)
S25L+S26Q+V29T+W56H,0.34 / 0.07 / 0.08 / -0.04 / -0.02 / 0.25,1 of 18 (2.00)
S25L+S28G+V29M+W56N,-0.37 / -0.52 / -0.59 / -0.66 / -0.75 / -0.51,2 of 18 (1.95)
S25L+S26Q+L30D+W56N,-0.08 / -0.04 / -0.31 / -0.31 / -0.20 / -0.15,0 of 18
S25Q+L30D+W56E,0.46 / 0.46 / 0.37 / 0.29 / 0.22 / 0.66,0 of 18
S25I+W56E+S62Q,-0.23 / -0.48 / -0.49 / -0.57 / -0.54 / -0.26,1 of 18 (2.50)
S25L+S26P+L30E+W56N+S62V,-0.19 / -0.46 / -0.42 / -0.44 / -0.42 / -0.29,3 of 18 (2.81)
S25I+V29E+W56N+T59Q+E61M,0.50 / 0.13 / 0.02 / 0.19 / 0.23 / 0.41,0 of 18
S25L+K36S+W56D+S62D,-0.55 / -0.39 / -0.54 / -0.54 / -0.53 / -0.38,1 of 18 (1.61)
S25L+V29C+W56G,-0.52 / -0.65 / -0.64 / -0.94 / -0.78 / -0.51,0 of 18
S25L+K36S+W56D,0.21 / 0.13 / -0.01 / 0.21 / 0.12 / 0.21,1 of 18 (2.63)
S25M+W56D+T59Q,-0.02 / -0.05 / -0.47 / -0.25 / -0.21 / -0.42,0 of 18
S25L+V29W+K36S+W56N+T59Q,0.75 / 0.41 / 0.47 / 0.15 / 0.42 / 0.64,1 of 18 (2.76)
S25L+V29M+L30E+W56E,1.32 / 2.28 / ND / 1.22 / 0.83 / 2.04,0 of 18
S25L+Q27M+V29E+W56E+T59Q,0.05 / -0.08 / -0.18 / -0.24 / -0.11 / 0.11,3 of 18 (2.25)
S25L+Q27S+V29M+W56N,0.31 / -0.08 / 0.07 / 0.03 / 0.01 / 0.02,0 of 18
S25L+W56S+E61C,0.18 / 0.05 / -0.08 / -0.09 / 0.08 / 0.20,2 of 18 (3.39)

The first 3 entries again:

changes,log10 Kd (nM) by replicate,control signals
S25L+V29T+S38A+W56N+T59Q,0.18 / 0.58 / 0.07 / 0.55 / 0.07 / 0.42,0 of 18
S25M+V29H+S38N+W56D,-0.27 / -0.37 / -0.47 / -0.60 / -0.44 / -0.33,1 of 18 (2.57)
S25L+V29H+S38N+W56N,0.63 / 0.40 / 0.45 / 0.33 / 0.70 / 0.38,0 of 18

Data: MIT Lincoln Laboratory AlphaSeq set, Li et al. 2023, doi:10.1038/s41467-023-39022-2, as distributed in FLAb.